Test results from article PMC7464559, “Synthesis, Optimization, Antifungal Activity, Selectivity, and CYP51 Binding of New 2-Aryl-3-azolyl-1-indolyl-propan-2-ols” (Pharmaceuticals, 2020).

Biological target: T1, retinoic acid 4-hydroxylase (CYP26A1) (Homo sapiens, UniProt O43174)
T1 construct: endogenous in cells; host or cells: MCF-7 human breast cancer cells
T1 sequence (O43174 1-497): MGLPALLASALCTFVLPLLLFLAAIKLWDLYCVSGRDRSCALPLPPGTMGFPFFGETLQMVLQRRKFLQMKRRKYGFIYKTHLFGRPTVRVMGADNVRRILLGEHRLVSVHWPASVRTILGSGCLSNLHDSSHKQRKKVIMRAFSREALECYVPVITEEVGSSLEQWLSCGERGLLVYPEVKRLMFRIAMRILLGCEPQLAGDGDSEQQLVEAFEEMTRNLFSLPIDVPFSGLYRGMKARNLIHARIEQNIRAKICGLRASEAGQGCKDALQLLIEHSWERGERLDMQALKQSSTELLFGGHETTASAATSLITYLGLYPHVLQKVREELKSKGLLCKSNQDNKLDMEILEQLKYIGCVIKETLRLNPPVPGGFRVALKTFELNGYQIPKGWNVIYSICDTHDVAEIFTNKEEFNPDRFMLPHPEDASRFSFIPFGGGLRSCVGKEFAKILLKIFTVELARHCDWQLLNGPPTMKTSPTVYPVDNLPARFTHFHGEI
Assay: MCF-7 cellular assay for inhibition of metabolism of all-trans retinoic acid
Type: cell-based
Conditions: mean (±5%) of two experiments

`Clc1cccc(C(c2ccc3[nH]cnc3c2)n2ccnc2)c1` (stereo not shown) [liarozole, reference compound] showed an IC50 of 7 µM.
